Laboratory results taken from ChEMBL document CHEMBL1131172 (J Med Chem, 1998).

Columns and labels:
[1] = biological target: T1, Dihydrofolate reductase (Pneumocystis carinii, UniProt P16184)
T1 sequence (P16184 whole entry): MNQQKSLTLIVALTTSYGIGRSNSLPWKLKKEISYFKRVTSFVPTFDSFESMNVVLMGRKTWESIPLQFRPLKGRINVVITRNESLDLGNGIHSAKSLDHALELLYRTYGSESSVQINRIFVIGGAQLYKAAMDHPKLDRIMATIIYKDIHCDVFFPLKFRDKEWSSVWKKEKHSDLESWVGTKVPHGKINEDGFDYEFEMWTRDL

[2] = biological target: T1, Dihydrofolate reductase; type: functional

IC50 [1] [µM] | IC50 [2] [µM] | Structure (SMILES)
8.7 |  | COc1ccccc1Nc1ccc2nc(N)nc(N)c2n1
10.5 |  | COc1ccc(S(=O)(=O)c2ccc3nc(N)nc(N)c3n2)cc1
 | 0.0317 | CN(c1ccc2ccccc2c1)c1ccc2nc(N)nc(N)c2n1
16.1 |  | COc1ccc(OC)c(Nc2ccc3nc(N)nc(N)c3n2)c1
